Test results: patent US7507717B2 (Xenome Ltd., priority 2002, dated 2009)

By UniProt entry, the sequences of proteins in these tests, tags left out.
UniProt P23975, whole entry: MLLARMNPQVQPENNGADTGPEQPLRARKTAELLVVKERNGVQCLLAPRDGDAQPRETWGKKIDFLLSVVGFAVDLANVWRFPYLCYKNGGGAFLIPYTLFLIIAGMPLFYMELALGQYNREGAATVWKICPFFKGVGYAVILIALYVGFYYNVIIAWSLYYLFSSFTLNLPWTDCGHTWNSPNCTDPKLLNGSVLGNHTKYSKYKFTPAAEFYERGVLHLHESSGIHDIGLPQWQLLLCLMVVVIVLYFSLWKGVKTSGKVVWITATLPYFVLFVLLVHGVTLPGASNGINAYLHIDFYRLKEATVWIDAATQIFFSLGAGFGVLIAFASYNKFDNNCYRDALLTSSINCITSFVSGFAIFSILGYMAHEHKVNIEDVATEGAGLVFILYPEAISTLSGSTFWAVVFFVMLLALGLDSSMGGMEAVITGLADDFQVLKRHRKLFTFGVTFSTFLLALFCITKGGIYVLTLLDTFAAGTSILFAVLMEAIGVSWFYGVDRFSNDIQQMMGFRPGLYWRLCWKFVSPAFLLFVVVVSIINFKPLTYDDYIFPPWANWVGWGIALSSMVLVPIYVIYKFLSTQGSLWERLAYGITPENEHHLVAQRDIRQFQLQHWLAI

Experiments:
[1] = target: T1, human noradrenaline transporter (hNET) (Homo sapiens, UniProt P23975); test: biochemical; format: binding; settings: Av IC50 Displacement of 3H-nisoxetine from hNET
T1 construct: expressed in transfected cells; host or cells: COS-7 cells (ATCC), transient transfection with metafectene

[2] = target: T1, human noradrenaline transporter (hNET); test: cell-based

## CC(C)C[C@@H]1NC(=O)[C@H](CCCCN)NC(=O)[C@H](Cc2ccc(O)cc2)NC(=O)CNC(=O)[C@@H]2CSSC[C@H](NC1=O)C(=O)N[C@@H](Cc1c[nH]cn1)C(=O)N1C[C@H](O)C[C@H]1C(=O)N[C@H](C(N)=O)CSSC[C@H](NC(=O)[C@@H](NC(=O)CNC(=O)[C@@H](N)Cc1ccccc1)C(C)C)C(=O)N2 [compound 133]
[1]
  IC50: 1820 nM
[2]
  IC50: 501 nM

## CCCC[C@H](NC(=O)CNC(=O)[C@@H](N)CCCN)C(=O)N[C@H]1CSSC[C@@H](C(N)=O)NC(=O)[C@@H]2C[C@@H](O)CN2C(=O)[C@H](Cc2c[nH]cn2)NC(=O)[C@@H]2CSSC[C@H](NC1=O)C(=O)NCC(=O)N[C@@H](Cc1ccc(O)cc1)C(=O)N[C@@H](CCCCN)C(=O)N[C@@H](CCC(C)C)C(=O)N2 [compound 52]
[1]
  IC50: 148 nM
[2]
  IC50: 81.3 nM

## CCCC[C@H](NC(=O)CNC(=O)[C@@H](N)CC(N)=O)C(=O)N[C@H]1CSSC[C@@H](C(N)=O)NC(=O)[C@@H]2C[C@@H](O)CN2C(=O)[C@H](Cc2c[nH]cn2)NC(=O)[C@@H]2CSSC[C@H](NC1=O)C(=O)NCC(=O)N[C@@H](Cc1ccc(O)cc1)C(=O)N[C@@H](CCCCN)C(=O)N[C@@H](CCCC)C(=O)N2 [compound 57]
[1]
  IC50: 170 nM
[2]
  IC50: 115 nM

## COc1ccc(C[C@@H]2NC(=O)CNC(=O)[C@@H]3CSSC[C@H](NC(=O)[C@H](CC(C)C)NC(=O)[C@H](CCCCN)NC2=O)C(=O)N[C@@H](Cc2c[nH]cn2)C(=O)N2CCC[C@H]2C(=O)N[C@H](C(N)=O)CSSC[C@H](NC(=O)[C@@H](NC(=O)CNC(=O)[C@H](CC(N)=O)NC(=O)[C@@H](N)Cc2c[nH]c4ccccc24)C(C)C)C(=O)N3)cc1 [compound 53]
[1]
  IC50: 155 nM
[2]
  IC50: 145 nM
